Laboratory results from patent US20260265195A1, “SARM1 MODULATORS, PREPARATIONS, AND USES THEREOF” (SIRONAX LTD, priority 2022, published 2026).

Chains of the proteins cited; added tags and fusions are not shown. Residues count along the entry.
UniProt Q6SZW1, 50-724 limits assumed: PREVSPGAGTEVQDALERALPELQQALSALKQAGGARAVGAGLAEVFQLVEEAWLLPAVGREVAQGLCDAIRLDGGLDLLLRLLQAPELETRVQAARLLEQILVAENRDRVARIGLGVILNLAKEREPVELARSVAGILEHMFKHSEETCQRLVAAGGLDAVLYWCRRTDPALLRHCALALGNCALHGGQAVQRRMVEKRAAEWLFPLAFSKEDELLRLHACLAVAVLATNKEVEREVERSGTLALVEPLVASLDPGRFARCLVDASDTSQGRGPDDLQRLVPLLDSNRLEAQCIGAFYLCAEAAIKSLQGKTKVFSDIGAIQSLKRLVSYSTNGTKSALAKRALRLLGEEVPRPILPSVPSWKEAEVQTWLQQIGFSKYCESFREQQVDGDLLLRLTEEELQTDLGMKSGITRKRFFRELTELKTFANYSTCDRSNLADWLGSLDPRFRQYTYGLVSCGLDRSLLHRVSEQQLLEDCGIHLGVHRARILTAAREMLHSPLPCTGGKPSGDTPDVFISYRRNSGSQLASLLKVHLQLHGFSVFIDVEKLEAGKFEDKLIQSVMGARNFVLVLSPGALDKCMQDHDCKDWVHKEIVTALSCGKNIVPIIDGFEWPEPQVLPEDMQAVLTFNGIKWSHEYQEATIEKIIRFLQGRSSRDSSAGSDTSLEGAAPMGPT

Molecular target: SARM1 (50-724) (Homo sapiens, UniProt Q6SZW1)
Assay: SARM1 (50-724) enzymatic assay (NMN-activated NAD+ hydrolysis, LC-MS/MS readout)
Settings: read-out: IC50 (SARM1 inhibitory activity), purified SARM1 (50-724) 2 nM, 200 μM NMN activator, 100 μM NAD+ substrate, 1 h at room temperature

Row | Compound | IC50 [nM]
1 | CCCc1c(C(=O)N(C)C2CCCC2)[nH]c2ccc(C)cc12 | 501 to 1000
2 | Cc1ccc2[nH]c(C(=O)N(C)C3CCCC3)c(CC#N)c2c1 | 501 to 1000
